1 sequence from ChEMBL document CHEMBL4390654, “Microwave-assisted solid-phase synthesis of antisense acpP peptide nucleic acid-peptide conjugates active against colistin- and tigecycline-resistant E. coli and K. pneumoniae” (Eur J Med Chem, 2019) can be followed below.

In the experiment the test system is Escherichia coli. The experiment is described as follows: Antibacterial activity against multi-drug resistant Escherichia coli NMI 3898/15 assessed as reduction in microbial growth incubated for 20 hrs. The format is functional. Put shortly:
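Broth microdilution MIC (modified Hancock protocol) in non-binding polystyrene plates. Inoculum ~2 × 10^5 CFU/mL in Mueller-Hinton broth with Mg²⁺ and Ca²⁺ at 4 mg/L each. Compounds dissolved in water, diluted in 0.01% acetic acid/0.2% BSA (final), added as 10× stocks. Covered plates incubated 20 h at 35 °C (± 2 °C) with 220 rpm circular shaking before MIC read.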

By MIC is commonly meant the least concentration at which growth counts as inhibited. Consider GENTAMICIN, for which the MIC was determined as 0.5 µg/mL.
